# Data: ChEMBL document CHEMBL1148435, “N,N-dialkyl-4-[(8-azabicyclo[3.2.1]-oct-3-ylidene)phenylmethyl]benzamides, potent, selective delta opioid agonists” (Bioorg Med Chem Lett, 2004)
# Protein sequences, listed by entry. Tags and fused reporters are not part of them.
# UniProt P41143, whole entry: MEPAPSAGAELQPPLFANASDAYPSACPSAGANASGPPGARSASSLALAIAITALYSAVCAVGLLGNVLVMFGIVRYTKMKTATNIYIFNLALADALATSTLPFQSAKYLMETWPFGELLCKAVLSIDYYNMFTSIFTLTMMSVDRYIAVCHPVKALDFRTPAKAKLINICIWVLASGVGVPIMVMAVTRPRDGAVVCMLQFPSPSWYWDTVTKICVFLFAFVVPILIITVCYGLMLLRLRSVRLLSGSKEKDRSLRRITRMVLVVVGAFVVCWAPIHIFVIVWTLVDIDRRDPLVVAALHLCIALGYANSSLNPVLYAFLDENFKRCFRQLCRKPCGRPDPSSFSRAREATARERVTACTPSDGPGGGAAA
# Molecular target: Delta-type opioid receptor (Homo sapiens, UniProt P41143)
# Assay: Efficacy relative to stimulation of [35S]GTP-gamma-S, binding by SNC80 was calculated for human delta opioid receptor
# Assay type: functional
row,Structure (SMILES),Relative efficacy
1,CCN(CC)C(=O)c1ccc(N(c2ccccc2)C2CCNCC2)cc1,0.76
2,C=CCN1[C@@H]2CC[C@H]1CC(N(c1ccccc1)c1ccc(C(=O)N(CC)CC)cc1)C2 (some centres undefined),1.07
3,C=CCN1CCC(N(c2ccccc2)c2ccc(C(=O)N(CC)CC)cc2)CC1,0.81
4,CCN(CC)C(=O)c1ccc(N(c2ccccc2)C2C[C@H]3CC[C@@H](C2)N3)cc1 (some centres undefined),0.95
